Results reported in US11110171B2, “PD-1 related cancer therapy” (New York University, priority 2017, dated 2021).

Molecular target: SHP2 (Homo sapiens, UniProt Q06124)
Experiment: Anti-phosphotyrosine (4G10) immunoblot of SHP099-treated Jurkat T cells after affinity purification with His-tagged SAP
Format: cell-based
Settings: SHP099 10 uM
Procedure: FIG. 4. SAP inhibits SHP2 activity. (a) Jurkat T cells stably transfected with shRNA for SAP (SAP KD), SHP2 (SHP2 KD) and non-targeting control (Control) were treated for one hour with SHP099 (10 uM), followed by stimulation with magnetic beads coated with anti-CD3, or anti-CD3+PDL2 for 5 minutes. At this time, the cells were harvested, and analyzed by immunoblotting, as indicated. (b) Jurkat T cells, transfected with siRNA for SAP (SAP KD) and non-targeting control (Control), were treated with pervanadate to induce maximal phosphorylation, followed by five serial washes, lysis and diafiltration to remove the drug and to exchange the buffer to a phosphatase-compatible buffer. […] (e-g) Enzymatic activity of SHP2^PTP was measured using a Malachite Green assay, with p60-SRC (e), SLAMF5 Y279 (f), CD3 Y142 (g), CD28 Y172 (h), and CD28 Y190 (i) peptides as substrates. […]
First, SAP could bind SHP2 and directly block the SHP2 catalytic site, or alternatively, SAP might not bind to SHP2, but rather could bind to its substrates and thereby block the interaction between SHP2 and its enzymatic substrates. […] To test the effect of SAP on SHP2 mediated dephosphorylation events, we measured SHP2-mediated dephosphorylation of p60-SRC Y416 (FIG. 4e), SLAMF5 Y279 (FIG. 4f), and CD3 Y142 (FIG. 4g) phosphotyrosyl peptides by Malachite Green assays. […]

**Q.** `CC1(N)CCN(c2cnc(-c3cccc(Cl)c3Cl)c(N)n2)CC1.Cl` [SHP099] was tested. Which “levels of select tyrosine phosphorylated proteins (detected by 4G10 antibody)” value did it give?
**A.** Its value is “increase”.
